Measurements: paper PMC3960220, “1,2-β-Oligoglucan Phosphorylase from Listeria innocua” (PLoS ONE, 2014)

Test system: O=P(O)(O)O
Assay: purified protein
Conditions: phosphorolysis, co-substrate Sop3 varied, phosphate 0.5-5.0 mM, 100 mM MOPS-NaOH pH 7.5, 25 mM MgCl2, 30°C

## Lin1839r (recombinant Lin1839 protein; 1,2-β-oligoglucan phosphorylase) (Listeria innocua Clip11262; T2A)
  Km: 1300 ± 200 µM
  kcat: 21 ± 1 s⁻¹
